BindingDB's records for PubMed 2704370 (National Institute of Mental Health, 1989)

Amino acid sequences for entries named in this document (tags omitted). A change or cut given only in a name is not applied to a line headed by its entry.
UniProt P08482: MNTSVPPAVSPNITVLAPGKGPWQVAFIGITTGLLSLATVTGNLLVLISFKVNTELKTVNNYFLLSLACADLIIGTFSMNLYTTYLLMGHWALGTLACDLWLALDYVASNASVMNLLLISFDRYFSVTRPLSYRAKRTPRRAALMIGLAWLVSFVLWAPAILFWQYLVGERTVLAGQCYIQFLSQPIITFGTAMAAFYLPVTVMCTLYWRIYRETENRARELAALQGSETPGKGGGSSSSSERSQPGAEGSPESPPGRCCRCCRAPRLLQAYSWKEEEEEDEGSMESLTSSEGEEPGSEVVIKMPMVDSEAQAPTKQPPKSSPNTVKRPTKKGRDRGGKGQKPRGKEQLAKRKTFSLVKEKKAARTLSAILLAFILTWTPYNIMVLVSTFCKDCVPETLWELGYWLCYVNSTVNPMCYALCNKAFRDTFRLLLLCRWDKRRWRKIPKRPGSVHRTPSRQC

Target: Muscarinic acetylcholine receptor M1 (Rattus norvegicus, UniProt P08482)

## COc1ccccc1CNCCCCCCNCCCCCCCCNCCCCCCNCc1ccccc1OC [METHOCTRAMINE]
  Ki: 16 nM
